Reference: BindingDB's records for doi:10.1021/jm0002782 (Abbott Laboratories, 2000)
pIC50: −log10 of the molar value.

Assay: Evaluated for its ability to block the adherence of JY-8 cells to immobilized ICAM-1.

pIC50: 7.46
SMILES: CC(=O)N1CCN(C(=O)/C=C/c2ccc(Sc3ccccc3C(C)C)c([N+](=O)[O-])c2)CC1 [A-286982]
